Apparent affinities of Ab-95 variants for a coronavirus HR2 peptide

Binding partner: SARS-CoV-2 spike HR2 peptide, sequence PDVDLGDISGINAS.

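Phage display of a naive human antibody library on the peptide gave the parent. The library (AAYL52) carries one to three amino acid substitutions per variant, with no insertions or deletions. Affinity was read by AlphaSeq, a pooled yeast mating assay with surface-displayed partners. The frequency of each diploid, read from paired DNA barcodes, reflects how well the two displayed proteins bind. Read counts were normalised to the haploid input and turned into Kd by a linear fit to BCL2-family pairs of known affinity, for each replicate. There are three technical replicates.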

Each scFv is VH, the linker GGGGSGGGGSGGGGS, VL, as in the parent Ab-95, and differs from it in the CDRs of the light chain only.
VH: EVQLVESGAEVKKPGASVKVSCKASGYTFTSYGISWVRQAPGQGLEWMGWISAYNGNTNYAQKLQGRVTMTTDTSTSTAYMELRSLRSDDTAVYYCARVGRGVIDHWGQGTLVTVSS
VL: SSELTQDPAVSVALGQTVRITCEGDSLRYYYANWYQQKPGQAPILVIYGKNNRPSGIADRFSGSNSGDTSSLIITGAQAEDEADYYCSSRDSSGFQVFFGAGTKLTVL

Variants are written as CDR1, CDR2 and CDR3 of the light chain (limits as in the source). Parent: EGDSLRYYYAN, GKNNRPS, SSRDSSGFQVF.
Affinities are written as log10 Kd with Kd in nM; a lower number is a better binder.
The mean shown is taken over the replicates in which the pair was detected.
"nd" means that the variant was in the library but no mating with the target was seen in that replicate; the authors take this as a sign of poor binding, and no number exists.
For reference, the parent read 2.31 as the reference entry and 2.25 as a member of this library.
Background: pairings of library AAYL52 with three empty control strains gave a value in 28% of cases (median 3.91, 5th percentile 2.90). Values in that range, when seen in few replicates, are hard to tell from nonspecific mating. Also given: how often the same scFv was detected with the empty control strains.

The variant EQKSLHYYYAN / GKNNRPS / SSRDSSGFQVF gave 2.31, 2.27, 1.78 (mean 2.12; controls 3 of 9).
The variant EGDNLRYYYAN / GKNNRPS / SSTDMSGFQVF gave 3.93, 3.59, 3.55 (mean 3.69; controls 4 of 9).
The variant EGDSLRYYYHN / LKNNMPS / SSRDSSGFQVF gave nd, 5.02, nd (controls 1 of 9).
The variant EGDSLVYYYAN / HKNNRPS / SSRDSSKFQVF gave nd, 3.78, 4.28 (mean 4.03; controls 0 of 9).
The variant EGWSLRYYHAN / GKNNRQS / SSRDSSGFQVF gave 3.64, 3.09, 2.94 (mean 3.22; controls 1 of 9).
The variant EGDYRRYYYAN / GKNNRPS / SSRDSSGFQVT gave 2.73, 4.67, nd (mean 3.70; controls 3 of 9).
The variant FGDSLRYYYAD / GKNMRPS / SSRDSSGFQVF gave 2.67, 2.86, 2.55 (mean 2.69; controls 2 of 9).
The variant EGDSLRLYYAN / GKNCRPS / ESRDSSGFQVF gave 4.85, nd, nd (controls 4 of 9).
The variant EEDSLEYYYAN / GKNNRPS / SSRDSMGFQVF gave nd, 4.00, 3.91 (mean 3.95; controls 3 of 9).
The variant EGDSLRYYSAD / GKNNRPS / SSRDSSGFQVN gave 3.15, nd, nd (controls 2 of 9).
The variant EGDSLRYKYAN / GKVNRPS / SSRRSSGFQVF gave 3.75, 4.61, 4.30 (mean 4.22; controls 3 of 9).
The variant EGDSLLYYYAN / GKNNRPS / HSRISSGFQVF gave 2.47, 2.28, 2.67 (mean 2.47; controls 2 of 9).
The variant EGDSLRYYYAN / GNNSRPS / SSQDSSGFQVF gave 2.10, 2.09, 2.47 (mean 2.22; controls 1 of 9).
The variant EGDSLRYYYAF / GKNNRVS / SSDDSSGFQVF gave 5.59, nd, nd (controls 4 of 9).
The variant EGDSLRYYYAF / GKNNRPS / STRDSSGFDVF gave 5.48, nd, 4.03 (mean 4.75; controls 4 of 9).
The variant EGDSLRYYYPN / GKQHRPS / SSRDSSGFQVF gave 3.05, 2.98, 3.02 (mean 3.02; controls 2 of 9).
The variant EGDSLRYYYAN / GKNNGPS / SSLDSSGFYVF gave 5.51, 3.64, nd (mean 4.57; controls 2 of 9).
The variant EGDDLRYYYAN / GKNNRSS / QSRDSSGFQVF gave nd, nd, 4.35 (controls 2 of 9).
The variant EGDSLRYYYTM / GKNNRPS / SSRDDSGFQVF gave 4.31, 4.49, nd (mean 4.40; controls 3 of 9).
The variant EGDSLRYCYAN / GKPNRPS / SSRDSPGFQVF gave 3.47, nd, nd (controls 5 of 9).
The variant EMDSLRYYYAN / GKNNRPS / SFRDSSGFQLF gave 3.19, 3.12, nd (mean 3.16; controls 1 of 9).
The variant EGDSLRYYIAN / GKNNRPS / SSRDSSGFQVI gave 2.81, 5.18, nd (mean 4.00; controls 4 of 9).
The variant EGDSLRYYYAN / DKNNRPS / GGRDSSGFQVF gave 3.14, 2.70, 2.53 (mean 2.79; controls 2 of 9).
The variant EGDSLRYRYAN / GKNNRPS / SSRDSGGFQVQ gave 2.54, 2.42, 2.15 (mean 2.37; controls 2 of 9).
The variant EGDSLRNYYAN / GKNNRHS / SSRDSSGFQVF gave 2.35, 2.24, 2.04 (mean 2.21; controls 7 of 9).
The variant EGDSLRYYNAN / GKNNRWS / ASRDSSGFQVF gave 2.22, 2.07, 1.97 (mean 2.09; controls 1 of 9).
The variant EGDSLRYYYAN / GKNNWHS / SSRDSNGFQVF gave nd, nd, nd (controls 1 of 9).
The variant EGDSLRYYAAN / RKNNRPS / SSFDSSGFQVF gave nd, nd, nd (controls 0 of 9).
The variant EGKSLRYYDAN / GKNNRPS / SSRDSSGFQDF gave 1.58, 1.68, 1.23 (mean 1.49; controls 1 of 9).
The variant EEDSLRYYYGN / GKNNRPS / SSRDSGGFQVF gave nd, nd, 4.08 (controls 1 of 9).
The variant EGDSLRYYYAN / GKYNRPS / SSRDNRGFQVF gave nd, nd, nd (controls 0 of 9).
The variant FGDSLRYYMAN / GKNNRPS / SSQDSSGFQVF gave nd, nd, nd (controls 3 of 9).
The variant EGDDLRYYYAN / GKRNRPS / SSADSSGFQVF gave 3.46, 5.25, nd (mean 4.35; controls 2 of 9).

Values reported by Engelhart et al. 2022, doi:10.1038/s41597-022-01779-4 (FLAb copy).